We go through 1 compound from ChEMBL document CHEMBL5725589, “Heterocyclic compounds as PI3K-γ inhibitors” (2018).

Structures are written as SMILES. Some results are limits rather than exact numbers.

The target of the assay is T1, Phosphatidylinositol 4,5-bisphosphate 3-kinase catalytic subunit delta isoform (Homo sapiens, UniProt O00329).
T1 sequence (O00329 whole entry): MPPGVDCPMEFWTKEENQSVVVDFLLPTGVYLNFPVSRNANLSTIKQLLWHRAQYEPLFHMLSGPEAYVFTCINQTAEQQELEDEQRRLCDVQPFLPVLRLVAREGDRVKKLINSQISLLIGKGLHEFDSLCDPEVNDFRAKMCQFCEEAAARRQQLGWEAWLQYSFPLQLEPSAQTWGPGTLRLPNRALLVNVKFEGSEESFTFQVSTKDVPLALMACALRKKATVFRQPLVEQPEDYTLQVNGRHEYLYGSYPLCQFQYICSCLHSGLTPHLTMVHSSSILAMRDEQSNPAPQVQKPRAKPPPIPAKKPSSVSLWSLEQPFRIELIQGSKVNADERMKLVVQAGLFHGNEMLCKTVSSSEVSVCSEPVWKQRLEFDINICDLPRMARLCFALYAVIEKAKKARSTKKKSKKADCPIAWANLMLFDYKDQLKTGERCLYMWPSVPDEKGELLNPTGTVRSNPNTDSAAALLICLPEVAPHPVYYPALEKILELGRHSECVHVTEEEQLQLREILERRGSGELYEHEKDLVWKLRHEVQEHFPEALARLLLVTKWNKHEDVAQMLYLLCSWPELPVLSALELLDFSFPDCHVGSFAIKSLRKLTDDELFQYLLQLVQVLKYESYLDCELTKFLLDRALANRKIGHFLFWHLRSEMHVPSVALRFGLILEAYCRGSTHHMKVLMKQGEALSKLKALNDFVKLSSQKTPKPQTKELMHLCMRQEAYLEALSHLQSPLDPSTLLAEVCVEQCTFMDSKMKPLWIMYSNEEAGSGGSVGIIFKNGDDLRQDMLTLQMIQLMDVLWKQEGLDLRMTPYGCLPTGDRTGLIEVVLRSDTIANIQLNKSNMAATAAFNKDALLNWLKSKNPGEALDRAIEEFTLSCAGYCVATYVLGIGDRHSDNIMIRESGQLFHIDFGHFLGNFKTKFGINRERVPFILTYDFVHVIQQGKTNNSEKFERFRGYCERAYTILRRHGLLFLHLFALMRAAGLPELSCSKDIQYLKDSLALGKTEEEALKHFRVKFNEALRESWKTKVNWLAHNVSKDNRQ
Description: PI3Kδ (p110δ/p85α) Recombinant Human Protein was purchased from Eurofins (St Charles, Mo.). […] The final concentration of DMSO in the assay was 2%. […] ATP, 3.4 nM PI3Kδ. […] The final concentration of SPA beads is 1.0 mg/mL.

Consider `Cc1csc2nc([C@H](C)Nc3ncnc4[nH]cnc34)c(-c3cccc(F)c3)c(=O)n12` [DEZAPELISIB], for which the IC50 was less than 100 nM.
